Reference: paper PMC6158167, “Structural analysis of HTL and D14 proteins reveals the basis for ligand selectivity in Striga” (Nature Communications, 2018)

Assays:
ShHTL7 L124F/T190F/C194F = experiment: YLG competition assay, ShHTL7 triple mutation; assay type: biochemical, Striga hermonthica; settings: from Ki in YLG competition assays
Experimental: The YLG assays were conducted as previously described[28] with minor modifications. Ten microliters of 0.1 mg mL^−1 ShHTL7 protein in a reaction buffer containing 20 mM HEPES, pH 7.0, 150 mM NaCl and 80 μL of reaction buffer were mixed in a 96-well black plate (Grenier). Ten microliters of 10 μM YLG was added to the solution and incubated at 25 °C for 1 h prior to measurement. The fluorescence intensity was measured using a SpectraMax® iD5 Multi-Mode Microplate Reader (Molecular Devices). Measurements were performed at room temperature under a 480 nm excitation wavelength, a 530 nm emission wavelength, a manual PMT of 500, and a read height of 1.00 mm. The fluorescence can be detected if YLG is hydrolyzed. The RFU (relative fluorescence unit) was calculated by subtracting the fluorescence of the buffer (without protein) and then dividing by the fluorescence of wild-type ShHTL7. […]
in a previous study6, the enzymes were incubated with YLG at the indicated concentrations. The RFU (relative fluorescence units) was calculated by dividing the fluorescence of hydrolysis at 10 μM YLG by wild type (WT) ShHTL7 after subtracting the fluorescence of the buffer. The Km values were calculated from a Michaelis-Menten plot using GraphPad Prism software and are shown in the plots. […]
The inhibition constant Ki was calculated according to the Cheng-Prusoff equation7. […]

AtHTL–AtMAX2 interaction [1] = target: T1, AtHTL–AtMAX2 interaction (Arabidopsis thaliana, UniProt Q9SZU7)
T1 sequence (Q9SZU7 1-270): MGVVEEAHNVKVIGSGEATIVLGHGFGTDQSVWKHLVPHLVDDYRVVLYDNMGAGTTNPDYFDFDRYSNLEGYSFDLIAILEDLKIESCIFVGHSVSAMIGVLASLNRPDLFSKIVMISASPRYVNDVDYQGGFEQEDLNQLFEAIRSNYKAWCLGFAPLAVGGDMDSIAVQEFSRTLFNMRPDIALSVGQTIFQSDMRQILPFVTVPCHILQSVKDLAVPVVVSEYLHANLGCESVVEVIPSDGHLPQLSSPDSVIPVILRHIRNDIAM
Source text: (§1) Full-length sequences of ShD14, ShHTL1, ShHTL3, ShHTL4, ShHTL7, and AtHTL were cloned into the pGBKT7 vector as bait (Clontech), and the coding regions of ShMAX2 and AtMAX2 were cloned into the pGADT7 vector as prey (Clontech). MAX2 was supposed to be unstable without ASK1. Therefore, AtASK1 was cloned into the N terminus of ShMAX2 and AtMAX2 with a 16-residue linker for co-expression. The bait and prey plasmids were co-transformed into the yeast (Saccharomyces cerevisiae) strain Y2HGold (Clontech) by the lithium acetate-mediated method. The presence of both plasmids was confirmed by growth on SD/-Leu/-Trp (-LT) plates. […] The plates were incubated for 5 days at 30 °C.
(§2) and AtHTL were detected using an anti-GST antibody, as indicated by the black arrows. (b)
(§3) 1/10, 1/20, 1/50, 1/100, 1/1000) of transformed yeast cells was plated on control medium (SD/-
(§4) Leu/-Trp; -LT) and selective medium (SD/-Leu/-Trp/-His/-Ade; -LTHA) in the absence or
(§5) (1 picture or pasted object on this page, not shown here)

AtHTL–ShMAX2 interaction = AtHTL–ShMAX2 interaction (Arabidopsis thaliana, UniProt Q9SZU7)
Source text: as §1, §2, §3, §4, §5

[2] = tested on: ShHTL1-AtMAX2 interaction
Source text: as §1, §2, §3, §4, §5

[3] = tested on: ShHTL1–ShMAX2 interaction
Source text: as §1, §2, §3, §4, §5

AtHTL–AtMAX2 interaction [4] = target: T1, AtHTL–AtMAX2 interaction; remark: listed apart in the source
Experimental: as §2, §3, §4, §5

Compound: CC1=CC(O/C=C2/C(=O)OC3c4ccccc4CC23)OC1=O (racemic) [rac-GR24]
- decrease in rac-GR24 binding affinity, L124F/T190F/C194F vs ShHTL7 (ShHTL7 L124F/T190F/C194F): > 100 fold
- ligand effect on AtHTL-AtMAX2 cotransformant growth (AtHTL–AtMAX2 interaction [1]): better growth was observed in the presence of rac-GR24 than the control and KAR1
- ligand effect on AtHTL-ShMAX2 cotransformant growth (AtHTL–ShMAX2 interaction): better growth was observed in the presence of rac-GR24 than the control and KAR1
- ligand effect on ShHTL1-AtMAX2 interaction [2]: significant difference between the control and the presence of KAR1 or rac-GR24 was not observed
- ligand effect on ShHTL1-ShMAX2 interaction [3]: significant difference between the control and the presence of KAR1 or rac-GR24 was not observed
- ligand effect on AtHTL-AtMAX2 interaction (AtHTL–AtMAX2 interaction [4]): enhanced by rac-GR24
